Data published in ChEMBL document CHEMBL5108017.

Chains of the proteins cited; added tags and fusions are not shown.
UniProt Q60492, whole entry, looked up: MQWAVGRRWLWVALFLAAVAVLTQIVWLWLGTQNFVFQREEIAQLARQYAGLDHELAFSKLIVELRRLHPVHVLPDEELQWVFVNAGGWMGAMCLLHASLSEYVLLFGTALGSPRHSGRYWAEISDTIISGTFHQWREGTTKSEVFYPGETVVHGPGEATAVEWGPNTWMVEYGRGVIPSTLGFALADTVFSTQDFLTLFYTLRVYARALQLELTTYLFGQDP
UniProt P35372, whole entry, looked up: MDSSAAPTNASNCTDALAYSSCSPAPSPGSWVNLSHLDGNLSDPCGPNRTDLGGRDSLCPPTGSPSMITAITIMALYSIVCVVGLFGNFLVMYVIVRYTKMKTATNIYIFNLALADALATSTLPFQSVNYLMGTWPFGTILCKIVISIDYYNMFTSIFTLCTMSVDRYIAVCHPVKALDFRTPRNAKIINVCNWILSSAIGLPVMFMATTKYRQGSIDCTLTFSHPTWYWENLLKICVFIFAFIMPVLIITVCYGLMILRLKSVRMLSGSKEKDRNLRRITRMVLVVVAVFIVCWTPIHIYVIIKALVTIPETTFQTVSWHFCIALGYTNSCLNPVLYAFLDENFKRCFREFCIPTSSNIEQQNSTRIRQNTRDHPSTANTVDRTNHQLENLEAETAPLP

Legend:
[1] = molecular target: Sigma non-opioid intracellular receptor 1 (Cavia porcellus, UniProt Q60492)
Mu-type opioid receptor = Mu-type opioid receptor (Homo sapiens, UniProt P35372); conditions: cho-k1

With O=C1COC2(CCN(CCc3ccccc3)CC2)CN1c1ccccc1 the Ki [1] was 57 nM.
C[C@@H]1[C@@H]2Cc3ccc(O)cc3[C@@]1(C)CCN2CCc1ccccc1 showed a Ki (Mu-type opioid receptor) of 3.9 nM.
